{"source": "ChEMBL document CHEMBL4020849", "about": "“4,6-Diaminopyrimidines as Highly Preferred Troponin I-Interacting Kinase (TNNI3K) Inhibitors” (J Med Chem, 2018)", "biological_target": "T1, Serine/threonine-protein kinase TNNI3K (Homo sapiens, UniProt Q59H18)", "T1 sequence (Q59H18 whole entry)": "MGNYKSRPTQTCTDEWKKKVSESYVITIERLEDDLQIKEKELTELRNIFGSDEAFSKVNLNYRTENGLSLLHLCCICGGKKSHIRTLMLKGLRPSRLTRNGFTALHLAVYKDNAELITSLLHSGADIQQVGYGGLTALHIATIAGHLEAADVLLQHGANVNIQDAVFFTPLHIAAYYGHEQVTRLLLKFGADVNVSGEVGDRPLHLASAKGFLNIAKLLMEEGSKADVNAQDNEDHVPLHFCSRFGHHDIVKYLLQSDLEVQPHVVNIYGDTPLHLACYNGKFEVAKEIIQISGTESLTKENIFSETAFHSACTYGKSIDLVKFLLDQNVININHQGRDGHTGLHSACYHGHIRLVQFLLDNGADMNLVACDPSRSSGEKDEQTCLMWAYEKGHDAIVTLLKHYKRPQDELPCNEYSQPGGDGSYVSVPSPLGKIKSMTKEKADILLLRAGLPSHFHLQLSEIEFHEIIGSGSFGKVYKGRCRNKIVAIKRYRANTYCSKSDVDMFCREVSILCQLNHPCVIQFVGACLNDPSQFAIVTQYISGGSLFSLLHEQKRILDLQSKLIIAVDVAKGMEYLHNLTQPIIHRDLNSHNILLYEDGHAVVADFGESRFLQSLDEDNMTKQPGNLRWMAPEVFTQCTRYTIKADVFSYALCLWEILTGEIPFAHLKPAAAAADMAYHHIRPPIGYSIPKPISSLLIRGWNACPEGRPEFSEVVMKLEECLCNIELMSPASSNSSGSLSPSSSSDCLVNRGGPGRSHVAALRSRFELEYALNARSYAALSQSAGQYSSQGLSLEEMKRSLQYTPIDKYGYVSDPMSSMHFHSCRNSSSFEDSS", "experiment": "Inhibition of 5-({[2-({[3-({4-[(5-hydroxy-2-methylphenyl)amino]-2-pyrimidinyl}amino)phenyl]carbonyl}amino)-ethyl]amino}carbonyl)-2-(6-hydroxy-3-oxo-3H-xanthen-9-yl)benzoic acid binding to human full length His/MBP-fused TNNI3K expressed in baculovirus expression system after 60 mins by fluorescence polarization assay", "data": [{"smiles": "CNS(=O)(=O)c1cccc(Nc2cc(Nc3cccc(C(C)(C)C)c3)ncn2)c1", "values": [{"measurement": "IC50", "result": 400, "unit": "nM"}]}]}
